Test results taken from patent US20170196868A1, “METHODS AND COMPOSITIONS FOR TREATMENT OF HER-POSITIVE CANCERS” (UNIVERSITY OF SOUTH CAROLINA, priority 2014, published 2017).

What was measured:
Type in all cases: cell-based
[1] = system: lapatinib-selected SKBR3-LT cells; assay: Sensitivity of lapatinib-selected cells versus parental SKBR3, 7-day treatment; details: single agent, 7 days
Procedure: To determine if CDK8/19 inhibition has an effect on acquired resistance to HER2-targeted drugs, we selected SKBR3 ER-HER2+ breast cancer cells for lapatinib resistance, through 4-month continuous exposure to 250 nM lapatinib. The parental SKBR3 cells and the lapatinib-selected SKBR3-LT cells were then tested for resistance to HER2-targeted drugs, Senexin B, and their combinations, by plating at 1,500 cells per well in 96-well plates and then treating with Senexin B (0-10 μM), lapatinib (0-1000 nM), trastuzumab biosimilar (0-100 μg/ml) or combinations of Senexin B and lapatinib or Senexin B and trastuzumab biosimilar at a fixed ratio for 7 days.

[2] = system: ER-HER2+ breast cancer cell line JIMT-1; assay: MTT assay for relative cell number, drug combination analysis (CompuSyn CI); details: single agent
Procedure: (§1) FIG. 1 presents an analysis of the nature of the interaction between CDK8/19 inhibitor Senexin B (a.k.a. SNX2-1-165) developed and owned by Senex Biotechnology, Inc.) and a HER2-specific monoclonal antibody (a biosimilar of trastuzumab from Biocad, Strelna, Russia) in BT474, a ER+HER2+ breast cancer cell line. In these experiments, 2000 cells/well were plated in each well of 96 well plates. After 24 hours, cells were treated with the indicated concentrations of Senexin B (SNXB) or a trastuzumab biosimilar (HER), alone or at a constant fixed ratio of 100 nM SNXB:1 μg/ml HER. Treatment was repeated after 3 days, and the MTT assay for relative cell number was performed after the total of 7 days of treatment. The Combination Index (CI) values were calculated using CompuSyn® (www.combosyn.com), a web tool based on the principles described in Chou (2006). […]
(§2) The same analysis as above was conducted in ER-HER2+ breast cancer cell line HCC-1419 which, despite high levels of HER2, is intrinsically resistant to trastuzumab but sensitive to lapatinib; this pattern of resistance has been associated with activated phosphoinositide 3-kinase/AKT signaling (O'Brien et al., 2010). We also analyzed ER-HER2+ breast cancer cell line JIMT-1, which is intrinsically resistant to both trastuzumab and lapatinib. […]

[3] = system: ER-HER2+ breast cancer cell line HCC-1419; assay: as above; details: single agent
Procedure: as §1, §2

trastuzumab biosimilar: HER2-specific monoclonal antibody (a biosimilar of trastuzumab from Biocad, Strelna, Russia)
sensitivity of SKBR3-LT relative to SKBR3 [1]: less sensitive
response of cells to drug alone [2]: resistant
response of cells to drug alone [3]: resistant
